Values quoted from earlier work in patent US10668052B2, “Combinations of isomers of dihydrotetrabenazine” (ADEPTIO PHARMACEUTICALS LIMITED, priority 2017, dated 2020).

Amino acid sequences for entries named in this document (tags omitted).
UniProt Q01827, whole entry: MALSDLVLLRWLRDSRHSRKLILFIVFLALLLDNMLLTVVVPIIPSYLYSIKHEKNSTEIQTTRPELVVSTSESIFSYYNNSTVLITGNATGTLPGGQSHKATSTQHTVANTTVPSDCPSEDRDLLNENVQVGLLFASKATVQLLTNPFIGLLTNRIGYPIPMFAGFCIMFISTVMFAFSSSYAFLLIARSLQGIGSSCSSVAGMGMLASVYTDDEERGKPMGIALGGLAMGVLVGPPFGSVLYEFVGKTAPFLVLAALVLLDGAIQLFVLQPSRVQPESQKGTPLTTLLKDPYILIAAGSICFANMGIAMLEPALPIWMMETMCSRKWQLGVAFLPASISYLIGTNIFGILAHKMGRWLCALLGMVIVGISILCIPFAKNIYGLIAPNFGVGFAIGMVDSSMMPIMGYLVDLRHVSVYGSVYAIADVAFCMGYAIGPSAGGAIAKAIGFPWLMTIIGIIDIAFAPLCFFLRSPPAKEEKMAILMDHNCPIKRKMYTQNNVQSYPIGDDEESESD

Molecular target: VMAT2 (Rattus norvegicus, UniProt Q01827)
Conditions: cited from earlier work; for activity as a VMAT2 binding agent: source not given

Structure (SMILES)	VMAT2 binding activity (all eight dihydrotetrabenazine isomers, Sun et al.)	activity as a VMAT2 binding agent
COc1cc2c(cc1OC)[C@H]1C[C@@H](O)[C@H](CC(C)C)CN1CC2 [(+)-α-DHTBZ, (2R,3R,11bR)-3-isobutyl-9,10-dimethoxy-1,3,4,6,7,11b-hexahydro-2H-pyrido[2,1,a]isoquinolin-2-ol]	most active	
COc1cc2c(cc1OC)[C@H]1C[C@H](O)[C@H](CC(C)C)CN1CC2 [(+)-β-DHTBZ, (2S,3R,11bR)-3-isobutyl-9,10-dimethoxy-1,3,4,6,7,11b-hexahydro-2H-pyrido[2,1,a]isoquinolin-2-ol]		significantly less active than the (+)-α-dihydrotetrabenazine isomer
COc1cc2c(cc1OC)[C@@H]1C[C@H](O)[C@@H](CC(C)C)CN1CC2 [(−)-α-DHTBZ, (2S,3S,11bS)-3-isobutyl-9,10-dimethoxy-1,3,4,6,7,11b-hexahydro-2H-pyrido[2,1,a]isoquinolin-2-ol]		essentially active
